Protein sequences, listed by entry. Tags and fused reporters are not part of them.
UniProt P08588, whole entry: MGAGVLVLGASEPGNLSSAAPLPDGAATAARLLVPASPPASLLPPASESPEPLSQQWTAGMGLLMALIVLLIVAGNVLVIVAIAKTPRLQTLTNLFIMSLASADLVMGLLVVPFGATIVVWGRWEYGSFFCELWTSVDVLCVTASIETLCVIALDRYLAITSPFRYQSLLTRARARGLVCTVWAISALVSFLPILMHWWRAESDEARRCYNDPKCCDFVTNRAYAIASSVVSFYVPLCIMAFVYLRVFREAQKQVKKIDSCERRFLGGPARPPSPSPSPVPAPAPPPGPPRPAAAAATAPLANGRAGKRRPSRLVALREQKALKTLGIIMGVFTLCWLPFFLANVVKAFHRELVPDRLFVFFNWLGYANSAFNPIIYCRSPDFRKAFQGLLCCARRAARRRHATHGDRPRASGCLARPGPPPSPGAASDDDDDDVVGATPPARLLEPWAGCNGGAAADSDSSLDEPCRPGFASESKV

In PMC10810011 (Expert opinion on drug delivery, 2023):

Biological target: beta1 adrenergic (Homo sapiens, UniProt P08588)
Test: InVEST radioligand filter binding, beta1 adrenergic

Structure (SMILES): C=CCc1ccccc1OCC(O)CNC(C)C (stereo not shown) [alprenolol, reference compound]
- IC50: 10.2 nM
